Earlier results, collected in PMC9570301.
pKd: −log10 of the molar value. Like-named read-outs stand apart in the source and are kept apart here.

Chains of the proteins cited; added tags and fusions are not shown. Residues count along the entry.
UniProt Q15109, 23-342: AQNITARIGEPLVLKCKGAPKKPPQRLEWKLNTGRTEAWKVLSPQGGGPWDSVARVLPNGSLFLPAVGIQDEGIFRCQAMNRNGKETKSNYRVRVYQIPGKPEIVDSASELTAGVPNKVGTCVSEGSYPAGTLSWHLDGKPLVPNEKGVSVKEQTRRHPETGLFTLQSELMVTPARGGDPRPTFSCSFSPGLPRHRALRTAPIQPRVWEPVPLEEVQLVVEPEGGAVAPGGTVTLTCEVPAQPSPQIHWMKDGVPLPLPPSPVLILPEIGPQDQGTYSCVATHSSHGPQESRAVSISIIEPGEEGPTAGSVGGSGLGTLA
UniProt Q15109, 23-116: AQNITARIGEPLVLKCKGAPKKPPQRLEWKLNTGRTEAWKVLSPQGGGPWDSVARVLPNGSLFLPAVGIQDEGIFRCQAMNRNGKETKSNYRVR

Assays:
[1] = target: RAGE (Homo sapiens) (UniProt Q15109)
[2] = target: RAGE V-domain (Homo sapiens) (UniProt Q15109)
[3] = target: RAGE V-domain (Homo sapiens) (UniProt Q15109); remark: listed apart in the source

Q: With Beta-amyloid 42 (from UniProt P05067) as the substance, how does the pKd [1] read?
A: The pKd was 7.04.

Q: With Beta-amyloid (from UniProt P05067) as the substance, how does the pKd [2] read?
A: The pKd was 7.28.

Q: With Beta-amyloid 40 (from UniProt P05067) as the substance, how does the pKd [3] read?
A: Its pKd is 6.22.
